Measurements reported in article PMC4167674 (Angewandte Chemie (International ed. in English), 2013).

Biological target: ConA (Canavalia ensiformis, UniProt P02866)
Details: read-out: IC50 (inhibitory concentration 50); ELLA; binding affinity between the sugar ligand and a single CRD in the lectin

## Man3
  IC50: 75 ± 6 µM
